From ChEMBL document CHEMBL1126080, “Selective reversible and irreversible ligands for the kappa opioid receptor” (1992)

The chains behind the UniProt entries cited, without tags or fusion partners. Where a name states a change or a piece, a line headed by the entry shows the natural chain unless it says otherwise.
UniProt P97266, whole entry, looked up: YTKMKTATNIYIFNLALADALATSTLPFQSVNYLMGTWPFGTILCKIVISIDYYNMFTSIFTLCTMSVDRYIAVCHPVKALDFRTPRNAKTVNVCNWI
UniProt P41144: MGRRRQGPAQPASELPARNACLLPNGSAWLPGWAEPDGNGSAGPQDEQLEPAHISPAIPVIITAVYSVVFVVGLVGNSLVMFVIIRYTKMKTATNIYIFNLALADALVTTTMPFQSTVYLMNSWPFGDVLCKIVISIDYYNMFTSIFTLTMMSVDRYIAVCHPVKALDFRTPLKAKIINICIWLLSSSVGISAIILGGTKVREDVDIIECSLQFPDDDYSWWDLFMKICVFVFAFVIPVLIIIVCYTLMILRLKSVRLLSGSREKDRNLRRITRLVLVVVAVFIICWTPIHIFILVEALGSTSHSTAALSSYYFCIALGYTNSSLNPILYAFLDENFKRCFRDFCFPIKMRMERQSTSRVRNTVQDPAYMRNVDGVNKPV

Experiments:
Mu-type opioid receptor = Mu-type opioid receptor (Cavia porcellus, UniProt P97266); experiment: Binding affinity against opioid receptor mu from guinea pig brain membranes using [3H]naloxone as radioligand
[1] = biological target: Kappa-type opioid receptor (Cavia porcellus, UniProt P41144); experiment: Binding affinity against opioid receptor kappa from guinea pig brain membranes using [3H]ethylketocyclazocine as radioligand

| SMILES | Ki (Mu-type opioid receptor) [nM] | Ki [1] [nM] |
| --- | --- | --- |
| C=C1C[C@@]2(CC[C@H](N3CCCC3)[C@@H](N(C)C(=O)Cc3ccc(Cl)c(Cl)c3)C2)OC1=O | 2610 | 1100 |
| CN(C(=O)Cc1ccc(Cl)c(Cl)c1)C1CCCCC1N1CCCC1 (centres undefined) | 825 | 15 |
| C=C1C[C@]2(CC[C@H](N3CCCC3)[C@@H](N(C)C(=O)Cc3ccc(Cl)c(Cl)c3)C2)OC1=O | 3150 | 109 |
| CN(C(=O)Cc1ccc(Cl)c(Cl)c1)C1CCC2(CCCO2)CC1N1CCCC1 (centres undefined) | 252 | 8.6 |
| CN(C(=O)Cc1ccc(Cl)c(Cl)c1)[C@H]1CC(=O)CC[C@@H]1N1CCCC1 | 13000 | 78 |
| CN(C(=O)Cc1ccc(Cl)c(Cl)c1)[C@H]1CC2(CC[C@@H]1N1CCCC1)OCCO2 | 5210 | 94 |
| CN(C(=O)Cc1ccc(Cl)c(Cl)c1)[C@H]1CCC2(C[C@@H]1N1CCCC1)OCCO2 | 702 | 1.5 |
